The record followed here is patent US8367658B2, “Pyrazin-2-yl-pyridin-2-yl-amine and pyrazin-2-yl-pyrimidin-4-yl-amine compounds and their use” (Cancer Research Technology Limited, priority 2007, dated 2013).

Where “and” joins values, the source holds several entries; their conditions need not be identical. Equal values may be shown once.

In the assay the target is T1, CHK1 (Homo sapiens, UniProt O14757).
T1 sequence (O14757 1-476): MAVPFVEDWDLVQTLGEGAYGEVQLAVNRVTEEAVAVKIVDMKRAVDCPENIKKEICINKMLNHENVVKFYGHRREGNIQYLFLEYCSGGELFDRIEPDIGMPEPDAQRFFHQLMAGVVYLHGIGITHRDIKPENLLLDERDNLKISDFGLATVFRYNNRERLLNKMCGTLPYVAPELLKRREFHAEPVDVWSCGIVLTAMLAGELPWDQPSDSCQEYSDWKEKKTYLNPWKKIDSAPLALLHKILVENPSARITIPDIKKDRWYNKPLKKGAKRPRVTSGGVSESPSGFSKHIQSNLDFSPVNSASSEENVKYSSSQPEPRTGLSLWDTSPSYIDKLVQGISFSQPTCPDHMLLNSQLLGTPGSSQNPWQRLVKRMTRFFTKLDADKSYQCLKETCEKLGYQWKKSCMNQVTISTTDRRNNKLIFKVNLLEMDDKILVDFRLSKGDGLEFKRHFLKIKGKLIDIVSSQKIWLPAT
As to the kind of experiment: CHK1 kinase function inhibition assay (DELFIA, phosphorylation of a CDC25C peptide). Type of assay: biochemical. Conditions: CHK1 1 nM, ATP 30 μM, 30 minutes at room temperature.
The IC50 is the concentration that gives 50% inhibition. Read a low IC50 as greater potency in that assay. `N#Cc1cnc(Nc2cc(NCCCO)ncn2)cn1` [Compound Z-040, 5-(6-(3-Hydroxypropylamino)pyrimidin-4-ylamino)pyrazine-2-carbonitrile] displayed an IC50 of 1000 to 10000 nM.
Next, `N#Cc1cnc(Nc2cc(NCCCN)ncn2)cn1` [Compound Z-021, 5-(6-(3-Aminopropylamino)pyrimidin-4-ylamino)pyrazine-2-carbonitrile]: ≤ 1000 nM and 100 to 1000 nM; `N#Cc1cnc(Nc2cc(N3CCC(N)CC3)ncn2)cn1` [Compound Z-008, 5-(6-(4-Aminopiperidin-1-yl)pyrimidin-4-ylamino)pyrazine-2-carbonitrile]: ≤ 1000 nM and 100 to 1000 nM; `N#Cc1cnc(Nc2cc(NCCN)ncn2)cn1` [Compound Z-020, 5-(6-(2-Aminoethylamino)pyrimidin-4-ylamino)pyrazine-2-carbonitrile]: 1000 to 10000 nM.
